Laboratory results: patent publication US20250325555A1, “Method of Treating Obesity with a Luteinizing Hormone Receptor Agonist” (ICAHN SCHOOL OF MEDICINE AT MOUNT SINAI, priority 2022, published 2025)
“Also recorded” adds a separate entry of the source. Each block holds one substance with its values, some of them ahead of it.

By UniProt entry, the sequences of proteins in these tests, tags left out. Residues count along the entry.
UniProt P30730, 27-700: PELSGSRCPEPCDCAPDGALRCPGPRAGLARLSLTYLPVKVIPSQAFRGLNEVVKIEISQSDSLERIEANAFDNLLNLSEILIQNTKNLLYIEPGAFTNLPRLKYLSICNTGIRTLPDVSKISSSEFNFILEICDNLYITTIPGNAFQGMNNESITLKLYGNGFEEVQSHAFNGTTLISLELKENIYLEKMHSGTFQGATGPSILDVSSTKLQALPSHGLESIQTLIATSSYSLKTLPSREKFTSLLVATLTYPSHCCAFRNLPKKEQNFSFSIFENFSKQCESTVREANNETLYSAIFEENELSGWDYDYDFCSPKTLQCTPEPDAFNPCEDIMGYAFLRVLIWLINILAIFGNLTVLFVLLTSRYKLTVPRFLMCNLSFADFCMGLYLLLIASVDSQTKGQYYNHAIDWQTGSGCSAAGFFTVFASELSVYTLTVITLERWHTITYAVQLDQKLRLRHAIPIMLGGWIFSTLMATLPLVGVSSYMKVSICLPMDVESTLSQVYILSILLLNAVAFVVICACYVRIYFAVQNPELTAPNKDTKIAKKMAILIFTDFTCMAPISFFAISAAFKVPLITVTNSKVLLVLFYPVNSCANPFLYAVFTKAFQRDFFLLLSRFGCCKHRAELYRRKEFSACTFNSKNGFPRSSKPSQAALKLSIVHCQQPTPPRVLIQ

Columns and labels:
adipose LHCGR = target: T1, adipose LHCGR (Mus musculus, UniProt P30730); experiment: ERK1/2 phosphorylation in differentiated 3T3-L1 adipocytes (Western blot); format: cell-based; settings: for ERK1/2 phosphorylation: differentiated 3T3-L1 adipocytes; for ERK1/2 phosphorylation with LHCGR siRNA knockdown: siLhcgr 3T3-L1 cells
T1 construct: host or cells: differentiated 3T3-L1 adipocytes
Procedure: CELL CULTURE: Differentiated 3T3-L1 preadipocytes (Zen-Bio) were treated with hCG or LH for 20 minutes.
siRNA KNOCKDOWN: Lentiviral vectors expressing Lhcgr siRNA (ABM 2649609) or siControl (ABM LVP015-G) were used per manufacturer's recommendation.
WESTERN BLOTTING: Proteins were blotted with commercial antibodies (Cell Signaling, Phospho-ERK1/2, 9101S; ERK1/2, 4695S, 1:5000).

[1] = tested on: differentiated 3T3-L1 adipocytes; experiment: RNAseq of fat genes in differentiated 3T3-L1 adipocytes; format: cell-based, mouse; settings: 1 nM, 12 hours
Procedure: (§1) RNAseq was performed to measure the log2(fold change) for Lep, Cebpb, Cebpa, Ucp2, and Ppargc1b fat genes in differentiated 3T3-L1 adipocytes after treatment with 1 nM LH or hCG for 12 hours.

3T3-L1 adipocytes = experiment: oil droplet accumulation (Oil Red O staining) in 3T3-L1 adipocytes; format: cell-based, mouse
Text: (§2) In order to study the mechanism of LHCGR activation on body fat, 3T3.L1 pre-adipocytes and adipose organoids were used. Oil Red 0 staining can be used to mark lipid-containing vacuoles and quantify cell lipid content. […] Organoids were derived from 3T3-L1 cells following 8 days culture on Nunclon Sphera dishes, and exposed to LH, hCG or ORG 43553 for 3 days. They were allowed to further differentiate for 7 days, after which paraffin sections were stained with H&E, and LHCGR expression was confirmed by immunostaining and RNAscope™. The thickness of the “differentiating cell layer” was measured with QuPath-0.2.3.

[2] = tested on: C57BL/6 mice fed on high-fat diet; experiment: LH or hCG in C57BL/6 male mice on high-fat diet, 6 weeks; format: in vivo; settings: 250 ng/mouse i.p. twice-a-week
Procedure: Fourteen-week-old C57BL/6 mice (20 mice/group) were treated with intraperitoneal injections of vehicle (200 μL saline), LH (250 ng/mouse) or hCG (250 ng/mouse), and fed on high-fat diet (TestDiet 0056833) for 6 weeks.
(§3) To address the confounding actions of high testosterone on bodyfat, the study was repeated in the presence of flutamide (7.5 mg, 60-day low release pellets).

[3] = tested on: C57BL/6 mice fed on high-fat diet; experiment: hCG with flutamide or placebo in C57BL/6 mice on high-fat diet; format: in vivo, mouse
Procedure: In order to evaluate the anti-obesity action of LH/hCG relative to testosterone levels, flutamide, an androgen receptor antagonist, was used to block the increase in testosterone after LH/hCG treatment in mice. Fourteen-week-old C57BL/6 mice (15 mice/group) underwent the following intraperitoneal injections—Group I: vehicle with placebo (placebo 60-day release pellets); Group II: vehicle with flutamide (7.5 mg 60-day release pellets); Group III: hCG (250 ng/mouse) with placebo; Group IV: hCG with flutamide. Mice were fed on high-fat diet for 6 weeks. […] A shown in FIG. 5E, mice treated with hCG had lower iWAT and gWAT weight in both flutamide and placebo groups.
as §3

[4] = tested on: organoids derived from 3T3-L1 cells; experiment: adipose organoids derived from 3T3-L1 cells, thickness of differentiating cell layer; format: cell-based, mouse; settings: exposed for 3 days, further differentiated 7 days
Text: as §2

Lhcgr-/- mice = experiment: LH in Lhcgr-/- mice on high-fat diet; format: in vivo, mouse; settings: LH 250 ng i.p.
Procedure: as §3

LHCGR in adipose tissue = target: T2, LHCGR in adipose tissue (Mus musculus, UniProt P30730); experiment: binding of AlexaFluor-488-labeled hCG in vivo; settings: injected intraperitoneally
T2 construct: from tissue; host or cells: mouse white adipose tissue (iWAT/sWAT, gWAT) in vivo, C57BL/6 / wild-type mice
Procedure: hCG BINDING: Recombinant hCG was conjugated with Alexa Fluor 488 Microscale Protein Labelling Kit (Invitrogen A30006) and injected i.p. (0.45 μg).
The binding of labelled hCG was studied in vivo. […] Complementarily, ^89Zr-LH was injected intravenously, followed two hours later by sacrifice and perfusion with PBS before organ retrieval and γ counting.

[5] = tested on: differentiated 3T3-L1 cells; experiment: binding of AlexaFluor-488-labeled hCG to differentiated 3T3-L1 cells; design: species or system mouse
Procedure: as §1

[6] = hCG 250 ng/mouse in the presence of flutamide, high-fat diet
[7] = hCG 250 ng/mouse, both flutamide and placebo groups

ERK1/2 phosphorylation with LHCGR siRNA knockdown (adipose LHCGR): abrogated; also recorded: no signal
Substance: hCG: human chorionic gonadotropin (hCG); recombinant hCG
ERK1/2 phosphorylation (adipose LHCGR): induced ERK1/2 phosphorylation in differentiated 3T3L1 adipocytes in a dose-dependent manner; also recorded: rapidly induced ERK1/2 phosphorylation in a concentration-dependent manner
fat genes (Lep, Cebpb, Cebpa, Ucp2, Ppargc1b) log2(fold change) by RNAseq [1]: downregulated
oil droplet accumulation (Oil Red O staining) (3T3-L1 adipocytes; 3T3.L1 adipocytes, 1 nM, 12 hours): reduced oil droplet accumulation
oil droplet accumulation (Oil Red O staining) (3T3-L1 adipocytes; differentiating 3T3-L1 adipocytes): reduced oil droplet accumulation
body fat mass [2]: lower fat mass; also recorded: markedly reduced body fat accrual
glucose tolerance [2]: no difference
iWAT weight [2]: lower iWAT weight
serum leptin levels [2]: lower leptin levels
diet-induced fat mass ([3]; hCG 250 ng/mouse in the presence of flutamide (7.5 mg 60-day release pellets), high-fat diet): reduced diet-induced fat mass; also recorded: lean phenotype persisted
lean mass [3, 6]: but not lean mass
total mass [3, 6]: but not lean mass (B) or total mass
gWAT weight [3, 7]: lower
iWAT weight [3, 7]: lower
leptin levels [3, 7]: lower leptin levels
differentiated layer of organoids (thickness) compared to vehicle-treated organoids [4]: substantial reduction

ERK1/2 phosphorylation with LHCGR siRNA knockdown (adipose LHCGR): no signal
Substance: LH: Luteinizing hormone (LH)
ERK1/2 phosphorylation (adipose LHCGR): induced ERK1/2 phosphorylation in differentiated 3T3L1 adipocytes in a dose-dependent manner; also recorded: rapidly induced ERK1/2 phosphorylation in a concentration-dependent manner
fat genes (Lep, Cebpb, Cebpa, Ucp2, Ppargc1b) log2(fold change) by RNAseq [1]: downregulated
body fat mass [2]: markedly reduced body fat mass; also recorded: markedly reduced body fat accrual
glucose tolerance [2]: no difference
lean mass [2]: increased lean mass
serum leptin levels [2]: lower leptin levels
total mass [2]: decreased total mass
fat accrual (Lhcgr-/- mice): failed to inhibit fat accrual
differentiated layer of organoids (thickness) compared to vehicle-treated organoids [4]: substantial reduction

binding to fat depots in LHCGR-null mice (LHCGR in adipose tissue): but not
Substance: AlexaFluor-488-labeled hCG: Recombinant hCG conjugated with Alexa Fluor 488
binding to fat depots in wildtype mice (LHCGR in adipose tissue): localized in mouse iWAT and gWAT; also recorded: bound to gonadal and subcutaneous fatpads
binding after pretreatment with unlabeled hCG [5]: competitively displaced
binding to differentiated 3T3-L1 cells [5]: specific
